Measured values published in US10149839B2, “Chemical compounds” (AstraZeneca AB, priority 2016, dated 2018).

Sequences of proteins named here, by UniProt entry; tags and fusion partners are left off. Residues count along the entry.
UniProt P03372, 307-554: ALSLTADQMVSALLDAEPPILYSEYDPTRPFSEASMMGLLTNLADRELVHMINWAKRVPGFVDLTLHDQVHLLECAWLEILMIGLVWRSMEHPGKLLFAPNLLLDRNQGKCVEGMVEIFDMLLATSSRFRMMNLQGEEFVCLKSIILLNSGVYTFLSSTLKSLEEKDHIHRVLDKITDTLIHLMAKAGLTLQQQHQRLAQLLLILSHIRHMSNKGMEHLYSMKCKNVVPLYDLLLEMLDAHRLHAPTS

Target: recombinant human Estrogen Receptor alpha ligand binding domain (ER alpha-LBD (GST)) (Homo sapiens (Human), UniProt P03372)
Assay: ERα binding assay (LanthaScreen TR-FRET competition)
Settings: read-out: ER binding IC50 value, 50% reduction in tracer binding to ER alpha-LBD

Structure (SMILES)	IC50 [nM]
C[C@@H]1Cc2c([nH]c3ccccc23)[C@@H](c2c(F)cc(OCCNCCCF)cc2F)N1CC(C)(F)CO (single isomer, unassigned) [Example 18]	2.3
COc1cc(OCCNCCCF)ncc1[C@@H]1c2[nH]c3ccccc3c2C[C@@H](C)N1CC(F)(F)CO [Example 64, 2,2-difluoro-3-((1R,3R)-1-(6-(2-((3-fluoropropyl)amino)ethoxy)-4-methoxypyridin-3-yl)-3-methyl-1,3,4,9-tetrahydro-2H-pyrido[3,4-b]indol-2-yl)propan-1-ol]	1.2
